molecular target: Human recombinant cathepsin K (Homo sapiens, UniProt P43235); test: In vitro cathepsin Ki inhibition measurements; assay type: biochemical; conditions: read-out: Ki (nM) vs Human Cathepsin K, prior art examples of WO-A-02057270

Amino acid sequences for entries named in this document (tags omitted). Residues count along the entry.
UniProt P43235, 115-329 limits assumed: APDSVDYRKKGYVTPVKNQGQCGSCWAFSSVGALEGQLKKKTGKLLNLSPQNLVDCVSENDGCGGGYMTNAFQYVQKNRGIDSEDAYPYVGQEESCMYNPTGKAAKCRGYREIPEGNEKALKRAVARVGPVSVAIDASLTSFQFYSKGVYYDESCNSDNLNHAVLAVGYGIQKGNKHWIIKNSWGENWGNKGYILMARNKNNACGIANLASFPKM

Row | Ki [nM] | Compound
1 | > 150 | COc1ccc(C(=O)N[C@@H](CC(C)C)C(=O)N2CC[C@H]3OCC(=O)[C@H]32)cc1
2 | > 50000 | CC(C)(C)c1ccc(C(=O)N[C@@H](Cc2ccc(Br)cc2)C(=O)N2CC[C@H]3OCC(=O)[C@H]32)cc1
3 | > 50000 | COc1ccc(C[C@H](NC(=O)c2ccc(C(C)(C)C)cc2)C(=O)N2CC[C@H]3OCC(=O)[C@H]32)cc1

From US7803803B2, “Tetrahydrofuro[3,2-B] pyrrol-3-ones as cathepsin K inhibitors” (Amura Therapeutics Limited, priority 2007, dated 2010)
